Assay: In vitro stability of glutamine by incubation in 0.2 M phosphate buffer at pH 9.0
Type: physicochemical
Settings: pH 9.0, 37° C.

Time for which glutamine was found to be stable: over 12 hours
Substance: Glutamic Acid/Glutamine Co-Polymer [Poly Glu/Gln]

Reference: patent US7018654B2, “Pharmaceutical composition containing an active agent in an amino acid copolymer structure” (New River Pharmaceuticals Inc., priority 1999, dated 2006)
